Read-outs that look alike come from different tables or passages of the source.
Legend:
[1] = target: σ-1 receptor (Rattus norvegicus (Rat), UniProt Q9R0C9); test: σ-1 receptor binding in rat brain homogenates ([3H](+)-pentazocine)
[2] = target: σ-2 receptor (Rattus norvegicus (Rat), UniProt Q5U3Y7); test: σ-2 receptor binding in rat brain homogenates ([3H]DTG plus (+)-pentazocine); settings: compound listing tables
[3] = read-out: Ki (nM) σ1, compound listing tables
[4] = read-out: Ki (nm) σ1, compound listing tables
[5] = read-out: σ-1 (Ki), rat brain homogenates

Chains of the proteins cited; added tags and fusions are not shown. Lines headed by an entry give the natural chain unless they say otherwise; changes in a name come on top.
UniProt Q9R0C9, whole entry: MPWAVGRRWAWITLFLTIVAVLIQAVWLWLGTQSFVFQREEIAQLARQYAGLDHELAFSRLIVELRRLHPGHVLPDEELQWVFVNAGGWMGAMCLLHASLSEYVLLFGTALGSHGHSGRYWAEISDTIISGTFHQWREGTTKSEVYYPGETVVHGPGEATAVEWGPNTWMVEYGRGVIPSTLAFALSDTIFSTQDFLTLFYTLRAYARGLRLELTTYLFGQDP
UniProt Q5U3Y7: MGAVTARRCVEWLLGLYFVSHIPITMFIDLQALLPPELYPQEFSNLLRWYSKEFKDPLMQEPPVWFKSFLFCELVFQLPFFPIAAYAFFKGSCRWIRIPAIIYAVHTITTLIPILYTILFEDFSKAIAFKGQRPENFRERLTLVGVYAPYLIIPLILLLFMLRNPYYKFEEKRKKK

| SMILES | Ki [1, 3] | Ki ([2]; read-out: Ki (nM) σ2) | other results |
| --- | --- | --- | --- |
| Cn1c(=O)n(CCCCN2CCN(c3ccc(F)cc3)CC2)c2ccccc21 [CM 397] | 415 ± 26.1 nM | – | – |
| O=c1oc2ccccc2n1CCCCN1CCN(Cc2ccccc2)CC1 [CM 159] | 4.44 ± 0.88 nM | – | – |
| c1ccc2oc(SCCCCN3CCN(C4CCCCC4)CC3)nc2c1 [CM 135] | 3.37 ± 0.28 nM | – | – |
| Cn1c(=O)n(CCCCN2CCN(c3ccc(F)cc3)CC2)c2cc(N=C=S)ccc21 [CM 617] | 97.4 ± 6.2 nM | – | – |
| CN1CCN(CCCCn2c(=O)oc3ccccc32)CC1 [CM 160] | – | 2380 ± 143 nM | – |
| CC(CCCn1c(=O)sc2cc(F)ccc21)N1CCN(C2CCCCC2)CC1 (centres unmarked) [AZ-66] | – | – | Ki [1, 4]: 0.31 ± 0.09 nM |
| O=c1oc2ccccc2n1CCCCN1CC=C(c2ccc(Cl)cc2)CC1 [CM 165] | 2.4 ± 0.38 nM | – | – |
| COc1cc2c(cc1OC)CN(CCCCn1cc(-c3ccc(F)cc3)c3ccccc31)CC2 [CM 361] | 4710 ± 450 nM | 4.37 ± 0.33 nM | – |
| O=c1n(CCCCN2CCN(c3ccc(F)cc3)CC2)c2ccccc2n1-c1ccc(F)cc1 [CM 322] | 118 ± 48.4 nM | – | – |
| O=c1oc2ccccc2n1CCN1CCN(C2CCCCC2)CC1 [CM 129] | 6.9 ± 0.37 nM | – | Ki [1, 5]: 6.9 ± 0.37 nM |
| O=c1sc2cc(Cc3ccccc3)ccc2n1CCN1CCCCCC1 [SN-81] | 7.42 nM | 225 nM | – |
| O=c1oc2ccccc2n1CCCCN1CCCCC1 [SN-60] | 12.1 nM | – | – |
| Fc1ccc2c(c1)sc(=S)n2CCCCN1CCN(C2CCCCC2)CC1 [AZ-78] | – | – | Ki [1, 4]: 7.21 ± 1.2 nM; Ki ([2]; read-out: Ki (nm) σ2): 0.5 ± 0.3 nM |
| Cn1c(=O)n(CCCCN2CCN(c3ccc(F)cc3N=C=S)CC2)c2ccccc21 [CM 621] | 96.5 ± 5.8 nM | 12.6 ± 1.01 nM | – |
| CC(=O)c1ccc2c(c1)oc(=O)n2CCCCN1[C@H](C)CN(c2ccc(F)cc2)C[C@@H]1C [CM 666] | 21.2 ± 2.34 nM | 14.9 ± 0.52 nM | – |
| Fc1ccc(N2CCN(CCCCn3c(=S)sc4ccccc43)CC2)cc1 [CM 307] | 6.27 ± 0.78 nM | 6.61 ± 1.42 nM | – |
| O=c1oc2cc(Br)ccc2n1CCCCN1CCN(C2CCCCC2)CC1 [CM 138] | 7.87 ± 0.19 nM | 4.47 ± 0.42 nM | – |
| O=c1oc2ccccc2n1CCCCN1CCC(c2ccccc2)CC1 [CM 172] | 0.58 ± 0.22 nM | – | – |
| CC(CCCn1c(=O)sc2ccccc21)N1CCN(C2CCCCC2)CC1 (centres unmarked) [AZ-57] | – | – | Ki [1, 4]: 8.73 ± 1.32 nM; Ki ([2]; read-out: Ki (nm) σ2): 3.15 ± 0.19 nM |
| O=C1CCN(CCCCn2c(=O)oc3ccccc32)CC1 [CM 152] | 19.3 ± 0.9 nM | – | – |
| Fc1ccc2nc(SCCCCN3CCN(C4CCCCC4)CC3)sc2c1 [AZ-81] | – | – | Ki [1, 4]: 14.3 ± 1.35 nM; Ki ([2]; read-out: Ki (nm) σ2): 13.8 ± 1.34 nM |
| O=c1oc2ccccc2n1CCCCCCN1CCN(Cc2ccccc2)CC1 [SN-61] | 4.68 nM | 107 nM | – |
| CC(=O)c1ccc2c(c1)oc(=O)n2CC1CCCC(N2CCN(c3ccc(F)cc3)CC2)C1 (centres unmarked) [CM 657] | 12.7 ± 1.06 nM | 5.99 ± 0.59 nM | – |

| SMILES | Ki [1, 3] | Ki ([2]; read-out: Ki (nM) σ2) | other results |
| --- | --- | --- | --- |
| O=c1oc2ccccc2n1CCCCN1CCN(CC2CCCCC2)CC1 [CM 171] | 0.94 ± 0.13 nM | – | – |
| CCC(=O)c1ccc2c(c1)sc(=O)n2CCN1CCN(C2CCCCC2)CC1 [SC-5] | – | – | Ki [1, 4]: 6.75 ± 0.6 nM |
| CC(=O)c1ccc2c(c1)oc(=O)n2CCCCN1CCN(C2CCCCC2)CC1 [CM 142] | 46.4 ± 8.06 nM | 7.04 ± 0.79 nM | – |
| O=c1oc2ccccc2n1CCN1CCN(CC2CCCCC2)CC1 [CM 181] | 2.36 ± 0.38 nM | – | – |
| CC(=O)c1ccc2c(c1)oc(=S)n2CCCCN1CCN(c2ccc(F)cc2)CC1 [CM 625] | 10.8 ± 0.78 nM | – | – |
| CCc1ccc2c(c1)oc(=O)n2CCCCN1CCN(C2CCCCC2)CC1 [CM 146] | 2.18 ± 0.14 nM | 2.56 ± 1.22 nM | – |
| Cn1c(=O)n(CCCCN2CCN(c3ccc(F)cc3)CC2)c2cc([N+](=O)[O-])ccc21 [CM 608] | 15.5 ± 1.75 nM | – | – |
| CCCc1ccc2c(c1)sc(=O)n2CCN1CCN(C2CCCCC2)CC1 [SC-6] | – | – | Ki [1, 4]: 2.15 ± 0.25 nM; Ki ([2]; read-out: Ki (nm) σ2): 2.43 ± 0.09 nM |
| COc1cc2c(cc1OC)CN(CCCCn1c(=S)sc3ccccc31)CC2 [CM 308] | 9.11 ± 1.31 nM | – | – |
| CCCc1ccc2oc(=O)n(CCN3CCCCCC3)c2c1 [SN-72] | – | 1810 nM | – |
| O=c1oc2ccccc2n1CCN1CCN(c2ccc(Cl)cc2)CC1 [CM 179] | 1430 ± 185 nM | – | – |
| O=c1oc2ccccc2n1CCCCN1CCN(c2ccc(F)cc2)CC1 [CM 170] | 7.59 ± 0.08 nM | 0.7 ± 0.11 nM | – |
| CCCc1ccc2c(c1)oc(=O)n2CCN1CCN(C2CCCCC2)CC1 [SC-12] | – | – | Ki [1, 4]: 7.5 ± 0.59 nM |
| O=c1sc2cc(F)ccc2n1CCCCN1CCN(C2CCCCC2)CC1 [AZ-68] | – | – | Ki [1, 4]: 2.01 ± 0.44 nM |
| O=c1n(CCCCN2CCN(C3CCCCC3)CC2)c2ccccc2n1-c1ccc(F)cc1 [CM 325] | 5.04 ± 0.66 nM | 2.12 ± 0.75 nM | – |
| CCC(=O)c1ccc2oc(=O)n(CCN3CCCCCC3)c2c1 [SN-71] | 115 nM | – | – |
| CC(=O)c1ccc2c(c1)OCC(=O)N2CCCCN1CCN(c2ccc(F)cc2)CC1 [CM 627] | 25.5 ± 1.11 nM | – | – |
| CCC(=O)c1ccc2c(c1)oc(=O)n2CCN1CCN(C2CCCCC2)CC1 [SC-10] | – | – | Ki [1, 4]: 14.3 ± 0.34 nM |
| CC(=O)c1ccc(NCCCCN2CCN(c3ccc(F)cc3)CC2)c(O)c1 [CM 623] | 29.4 ± 3.93 nM | – | – |
| O=c1oc2ccccc2n1CCCCN1CCN(c2ccc(F)cc2F)CC1 [CM 624] | 14.8 ± 0.71 nM | – | – |
| O=c1oc2ccccc2n1CCCN1CCN(C2CCCCC2)CC1 [CM 124] | 5.22 ± 1.11 nM | – | Ki [1, 5]: 5.22 ± 1.11 nM |
| Cn1c(=O)n(CCCCN2CCN(c3ccc(F)cc3)CC2)c2cc(N)ccc21 [CM 609] | 23.4 ± 2.63 nM | – | – |
| O=C1CSc2cc(F)ccc2N1CCCCN1CCN(C2CCCCC2)CC1 [AZ-87] | – | – | Ki [1, 4]: 6.24 ± 1.97 nM; Ki ([2]; read-out: Ki (nm) σ2): 6.45 ± 0.94 nM |

Source: patent US9604926B2 (THE UNIVERSITY OF MISSISSIPPI, priority 2007, dated 2017)
